Measurements as given in ChEMBL document CHEMBL1158562, “Design, synthesis and structure-activity relationships of novel biarylamine-based Met kinase inhibitors” (Bioorg Med Chem Lett, 2010).

Columns and labels:
[1] = Selectivity ratio of IC50 for TrkA to IC50 for human recombinant C-met
[2] = Selectivity ratio of IC50 for FLT3 to IC50 for human recombinant C-met

Structure (SMILES): O=C(Nc1ccc(F)cc1F)c1cccnc1Nc1ccc(Oc2ccnc3[nH]ccc23)c(F)c1
- Ratio IC50 [1]: 50
- Ratio IC50 [2]: 17
